Reference: PubChem BioAssay AID1979 (Broad Institute, 2009)
Screen size: about 300,000 compounds; about 1,700 (0.57%) were called active. These results got no clear call from the source, so the numbers are uncertain.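 How the source made its calls: active means growth inhibition above about 58% in most replicates (limit read from the data, passing the limit was not always enough); inconclusive means exactly half the replicates above a set limit; inactive means most replicates below a set limit.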

Assay: Candida growth reduction under fluconazole – CaCi-2 strain, Alamar Blue fluorescence, primary screen (AID 1979);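 further: all wells also contain fluconazole at 8 µg/ml as a sub-toxic cotreatment; 0% = median of DMSO wells and 100% = median of geldanamycin control wells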
Conditions: C. albicans CaCi-2 (fluconazole-resistant clinical isolate) + fluconazole, 48 h, stronger effect = higher value, concentration not given here

Structure (SMILES) | growth inhibition
COc1ccc2nc(NP(=O)(c3ccccc3)c3ccccc3)sc2c1 | inconclusive: 63.9%
O=P1(Nc2nc3ccc(Cl)cc3s2)COc2ccccc2O1 (configuration not stated) | inconclusive: 54%
